Target: Human Factor B (human) (UniProt P00751)
Experiment: cell-based or functional assay

Row | Substance | hu Factor B cleavage (ELISA) EC50 (nM) | hu Factor B cleavage (ELISA) EC50 [nM] | hu Factor B cleavage (ELISA) EC50 (nM), average of n=2, S.D. 8145.9 [nM]
1 | uPA C122S/V38D/A96N/D97A/A98G/H99V/T97a_L97bdel (from UniProt P00749 179-430) (enzyme) | > 1000 | – | –
2 | uPA V38D/A96E/D97E/C122S/A98G/H99A/T97a_L97bdel (from UniProt P00749 179-430) (enzyme) | > 750 | – | –
3 | uPA V38D/A96E/D97G/C122S/Y172L/A98G/H99M/T97a_L97bdel (from UniProt P00749 179-430) (enzyme) | > 1200 | – | –
4 | uPA V38D/A96G/D97E/A98G/H99V/C122S/T97a_L97bdel (from UniProt P00749 179-430) (enzyme) | > 950 | – | –
5 | uPA V38D/A98G/H99A/C122S/L97bdel (from UniProt P00749 179-430) (enzyme) | > 1600 | – | –
6 | uPA V38D/A98G/H99A/C122S/T97a_L97bdel (from UniProt P00749 179-430) (enzyme) | > 800 | – | –
7 | uPA V38D/A98G/H99L/C122S/T97a_L97bdel (from UniProt P00749 179-430) (enzyme) | > 550 | – | –
8 | uPA V38D/C122S/A96D/D97G/A98G/H99A/T97a_L97bdel (from UniProt P00749 179-430) (enzyme) | > 1100 | – | –
9 | uPA V38D/C122S/A96D/D97T/A98G/H99M/T97a_L97bdel (from UniProt P00749 179-430) (enzyme) | – | 7860 | –
10 | uPA V38D/C122S/A96D/D97W/A98N/H99L/T97a_L97bdel (from UniProt P00749 179-430) (enzyme) | – | 3720 | –
11 | uPA V38D/C122S/A96E/D97H/A98G/H99L/T97a_L97bdel (from UniProt P00749 179-430) (enzyme) | > 1050 | – | –
12 | uPA V38D/C122S/A96E/D97R/A98G/H99V/T97a_L97bdel (from UniProt P00749 179-430) (enzyme) | > 3000 | – | –
13 | uPA V38D/C122S/D97L/A98G/H99V/T97a_L97bdel (from UniProt P00749 179-430) (enzyme) | > 950 | – | –
14 | uPA V38D/C122S/T97a_L97bdel (from UniProt P00749 179-430) (enzyme) | > 3000 | – | –
15 | uPA V38D/D97A/C122S/A98G/H99L/T97a_L97bdel (from UniProt P00749 179-430) (enzyme) | – | – | 6560

Source: US20240117334A1, “FACTOR B PROTEASES” (Vertex Pharmaceuticals Incorporated, priority 2021, published 2024)
